## Antibody variant affinities, Ab-14 light chain, assay 1

Target: peptide PDVDLGDISGINAS, taken from heptad repeat 2 (HR2) of SARS-CoV-2 spike.

Parent scFv Ab-14: VH joined to VL by a 15-residue (Gly4Ser)3 linker. Changes lie in the light chain CDRs alone.
VH: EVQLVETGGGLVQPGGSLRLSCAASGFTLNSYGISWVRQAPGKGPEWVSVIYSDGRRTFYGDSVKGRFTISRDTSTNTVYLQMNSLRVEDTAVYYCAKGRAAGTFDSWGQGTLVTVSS
VL: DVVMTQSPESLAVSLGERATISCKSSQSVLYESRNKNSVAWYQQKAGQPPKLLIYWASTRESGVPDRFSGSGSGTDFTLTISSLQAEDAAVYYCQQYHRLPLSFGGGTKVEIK

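The parent was found by panning a naive human phage display library on the peptide. In library AAYL50, one, two or three CDR residues were substituted; doubles and triples were drawn at random. AlphaSeq pools MATa yeast showing the antibodies with MATalpha yeast showing the peptide. Binding brings cells together so that they mate, and sequencing counts the barcode pairs among the diploids. Scores were corrected for input abundance and mapped to Kd with protein pairs of known affinity run in the same pool. The assay was run in three technical replicates.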

Sequences are complete VL domains. The read-out is the apparent dissociation constant on a log10 scale (nM): the lower, the stronger. A pair that was not seen in that replicate is written "ND"; this usually means weak binding, but a binder can also be missed. Empty control strains, which show no peptide, gave a signal in 18% of pairings with library AAYL50; the median was 4.19 and 95% of these signals were weaker than 2.99. No background was subtracted. The control count says in how many pairings with the empty strains this scFv gave a signal, with their mean in brackets.

| # | VL | log10 Kd, replicates | empty controls |
|---|---|---|---|
| 1 | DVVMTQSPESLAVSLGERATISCKSSQSVFYESRNEYSVAWYQQKAGQPPKLLIYWASTRESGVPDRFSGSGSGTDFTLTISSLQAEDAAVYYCQQYHRLPLSFGGGTKVEIK | 0.61 / 0.85 / 0.88 | 2 of 9 (2.38) |
| 2 | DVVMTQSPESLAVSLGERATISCKTSQSVLIESRNKNSVAWYQQKAGQPPKLLIYWASTCESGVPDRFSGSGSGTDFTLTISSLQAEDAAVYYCQQYHRLPLSFGGGTKVEIK | ND / ND / ND | 0 of 9 |
| 3 | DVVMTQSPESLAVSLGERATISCKSWQSVLYESRFKNSVAWYQQKAGQPPKLLIYWASTRESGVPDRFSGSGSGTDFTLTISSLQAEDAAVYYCQGYHRLPLSFGGGTKVEIK | ND / ND / ND | 0 of 9 |
| 4 | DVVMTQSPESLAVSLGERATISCKSSDMVLYSSRNKNSVAWYQQKAGQPPKLLIYWASTRESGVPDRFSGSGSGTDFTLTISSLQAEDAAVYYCQQYHRLPLSFGGGTKVEIK | 1.84 / 1.94 / 1.48 | 3 of 9 (3.72) |
| 5 | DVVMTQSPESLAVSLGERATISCKRSQSVLYESRNKYSVAWYQQKAGQPPKLLIYWASGRESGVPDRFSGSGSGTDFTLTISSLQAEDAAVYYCQQYHRLPLSFGGGTKVEIK | ND / ND / 4.98 | 4 of 9 (5.01) |
| 6 | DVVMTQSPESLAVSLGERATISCKSSQSVLYESRNKNSVAWYQQKAGQPPKLLIYHASTRESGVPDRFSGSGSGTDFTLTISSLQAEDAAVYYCQQYHRLPLSFGGGTKVEIK | 0.98 / 1.22 / 1.11 | 2 of 9 (4.39) |
| 7 | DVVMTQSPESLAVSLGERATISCSSSQSQLYMSRNKNSVAWYQQKAGQPPKLLIYWASTRESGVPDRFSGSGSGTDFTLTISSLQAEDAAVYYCQQYHRLPLSFGGGTKVEIK | 1.61 / 1.55 / 1.85 | 3 of 9 (4.84) |
| 8 | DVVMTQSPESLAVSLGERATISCKSSQSVLYESRNKNRVAWYQQKAGQPPKLLIYWARTWESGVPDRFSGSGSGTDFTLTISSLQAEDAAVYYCQQYHRLPLSFGGGTKVEIK | ND / ND / ND | 1 of 9 (2.96) |
| 9 | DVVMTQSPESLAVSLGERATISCRSSQSVLYMARNKNSVAWYQQKAGQPPKLLIYWASTRESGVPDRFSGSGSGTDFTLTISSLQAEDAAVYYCQQYHRLPLSFGGGTKVEIK | 2.85 / 2.53 / 3.29 | 6 of 9 (4.86) |
| 10 | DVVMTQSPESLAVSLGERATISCKSSQSVLYESRNKNSVAWYQQKAGQPPKLLIYWLSFRESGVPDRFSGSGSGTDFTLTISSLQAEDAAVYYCEQYHRLPLSFGGGTKVEIK | ND / 3.26 / ND | 1 of 9 (3.70) |
| 11 | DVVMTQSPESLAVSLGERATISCKSSQSVLYESRNKNSVAWYQQKAGQPPKLLIYWASSRESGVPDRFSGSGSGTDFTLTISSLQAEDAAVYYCQQYHRAPKSFGGGTKVEIK | 4.33 / 5.03 / 4.94 | 9 of 9 (4.44) |
| 12 | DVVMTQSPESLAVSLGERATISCWSSQSVLYESRNKNSVAWYQQKAGQPPKLLIYWAWTRESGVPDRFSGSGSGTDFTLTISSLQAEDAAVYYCQQYHRVPLSFGGGTKVEIK | ND / ND / ND | 1 of 9 (2.18) |
| 13 | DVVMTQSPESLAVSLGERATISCKFSQSVLYEERNKNSVAWYQQKAGQPPKLLIYSASTRESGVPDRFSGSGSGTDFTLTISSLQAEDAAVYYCQQYHRLPLSFGGGTKVEIK | -0.58 / -0.20 / -0.44 | 5 of 9 (4.66) |
| 14 | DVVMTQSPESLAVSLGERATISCKSSNSVLGESRNKNSVAWYQQKAGQPPKLLIYWASTRESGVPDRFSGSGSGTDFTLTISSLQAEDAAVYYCQQYHRLPLSFGGGTKVEIK | 3.88 / ND / 3.91 | 0 of 9 |
| 15 | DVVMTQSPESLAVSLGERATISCKSSASTLYESRNKNSVAWYQQKAGQPPKLLIYWASTRESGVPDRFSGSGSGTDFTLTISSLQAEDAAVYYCQQYHRLPLSFGGGTKVEIK | 1.00 / 0.98 / 1.21 | 1 of 9 (3.88) |
| 16 | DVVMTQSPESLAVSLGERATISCKSSKSVLYESANKNSVAWYQQKAGQPPKLLIYWKSTRESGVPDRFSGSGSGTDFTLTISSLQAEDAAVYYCQQYHRLPLSFGGGTKVEIK | 1.99 / 1.85 / 2.06 | 2 of 9 (5.17) |
| 17 | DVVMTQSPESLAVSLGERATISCKSSQSVLYESRNKNSVAWYQQKAGQPPKLLIYWASMRASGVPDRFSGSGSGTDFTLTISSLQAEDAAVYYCQQYHRLPLQFGGGTKVEIK | 1.34 / 1.29 / 0.97 | 2 of 9 (4.43) |
| 18 | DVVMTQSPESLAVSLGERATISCKSSQSVLYESRNKNSVAWYQQKAGQPPKLLIYWASTRESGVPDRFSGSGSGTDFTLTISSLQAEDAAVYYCQQDHRLPLAFGGGTKVEIK | 0.84 / 1.18 / 0.87 | 0 of 9 |
| 19 | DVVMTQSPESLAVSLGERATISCKSSQSVLYESRNKNSVFWYQQKAGQPPKLLIYWASMRESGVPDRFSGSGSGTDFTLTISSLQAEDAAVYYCQQYHREPLSFGGGTKVEIK | ND / ND / ND | 1 of 9 (3.37) |
| 20 | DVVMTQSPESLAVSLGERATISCKKSQSVLYEGRNKNSVAWYQQKAGQPPKLLIYWASTRESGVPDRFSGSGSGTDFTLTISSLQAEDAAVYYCQQYHRLPNSFGGGTKVEIK | ND / ND / ND | 0 of 9 |
| 21 | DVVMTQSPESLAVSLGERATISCKSSQSVLYESCTKNSVAWYQQKAGQPPKLLIYWASTRESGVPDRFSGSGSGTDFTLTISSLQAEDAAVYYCQQYGRLPLSFGGGTKVEIK | 1.94 / 2.55 / 2.49 | 2 of 9 (4.63) |

Extract of 3 entries:

| VL | log10 Kd, replicates | empty controls |
|---|---|---|
| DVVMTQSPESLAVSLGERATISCSSSQSQLYMSRNKNSVAWYQQKAGQPPKLLIYWASTRESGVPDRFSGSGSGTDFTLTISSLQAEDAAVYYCQQYHRLPLSFGGGTKVEIK | 1.61 / 1.55 / 1.85 | 3 of 9 (4.84) |
| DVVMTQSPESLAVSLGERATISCKSSQSVLYESRNKNSVAWYQQKAGQPPKLLIYWLSFRESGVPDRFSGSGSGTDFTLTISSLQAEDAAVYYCEQYHRLPLSFGGGTKVEIK | ND / 3.26 / ND | 1 of 9 (3.70) |
| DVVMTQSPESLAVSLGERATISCKSSKSVLYESANKNSVAWYQQKAGQPPKLLIYWKSTRESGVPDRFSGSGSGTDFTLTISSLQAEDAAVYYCQQYHRLPLSFGGGTKVEIK | 1.99 / 1.85 / 2.06 | 2 of 9 (5.17) |

Values reported by Engelhart et al. 2022, doi:10.1038/s41597-022-01779-4 (FLAb copy).